Source: US12201633B2, “Compounds and methods for treatment of visceral pain” (Arena Pharmaceuticals, Inc., priority 2017, dated 2025)

Protein sequences, listed by entry. Tags and fused reporters are not part of them.
UniProt P34972, whole entry, looked up: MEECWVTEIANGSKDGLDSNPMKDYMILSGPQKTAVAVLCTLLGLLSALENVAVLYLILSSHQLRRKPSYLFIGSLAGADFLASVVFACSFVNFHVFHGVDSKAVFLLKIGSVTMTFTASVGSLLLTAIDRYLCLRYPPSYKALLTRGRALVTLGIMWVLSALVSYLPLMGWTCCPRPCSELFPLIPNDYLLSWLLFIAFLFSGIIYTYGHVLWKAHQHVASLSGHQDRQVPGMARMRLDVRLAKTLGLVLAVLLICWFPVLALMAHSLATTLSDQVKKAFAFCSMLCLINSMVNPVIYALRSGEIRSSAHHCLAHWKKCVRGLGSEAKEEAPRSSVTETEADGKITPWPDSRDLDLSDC

Target: human CB2 receptor (Homo sapiens, UniProt P34972)
Experiment: HTRF assay for direct cAMP measurement, CB2
Format: cell-based
Details: read-out: EC50 hCB2, CHO-K1 cells, Table A-2

O=C(NC1(C(F)(F)F)CC1)c1nn(-c2c[n+]([O-])ccn2)c2c1C[C@@H]1C[C@H]21 [Compound 764, (1aS,5aS)-2-(4-Oxy-pyrazin-2-yl)-1a,2,5,5a-tetrahydro-1H-2,3-diaza-cyclopropa[a]pentalene-4-carboxylic acid (1-trifluoromethyl-cyclopropyl)-amide] was tested, and the pEC50 was 9.30.

pEC50: −log10 of the molar value.
